Measured values as given in patent US9000025B2, “Autotaxin inhibitors and uses thereof” (Amira Pharmaceuticals, Inc., priority 2010, dated 2015).

Target: autotaxin (ATX) (Homo sapiens, UniProt Q13822)
Test: Native Autotaxin Choline Release Assay
Settings: read-out: MDA-MB-435S Assay IC50; autotaxin in conditioned medium from human melanoma cell line; choline released from LPC

Compound: CCn1cc(-n2c(C)c(Sc3ccc(F)c(C(=O)O)c3)c3ccc(Cl)c(F)c32)cn1
- IC50: < 300 nM
